Results: ChEMBL document CHEMBL3352566 (Bioorg Med Chem Lett, 2014)

The chains behind the UniProt entries cited, without tags or fusion partners.
UniProt P0DMS8, whole entry: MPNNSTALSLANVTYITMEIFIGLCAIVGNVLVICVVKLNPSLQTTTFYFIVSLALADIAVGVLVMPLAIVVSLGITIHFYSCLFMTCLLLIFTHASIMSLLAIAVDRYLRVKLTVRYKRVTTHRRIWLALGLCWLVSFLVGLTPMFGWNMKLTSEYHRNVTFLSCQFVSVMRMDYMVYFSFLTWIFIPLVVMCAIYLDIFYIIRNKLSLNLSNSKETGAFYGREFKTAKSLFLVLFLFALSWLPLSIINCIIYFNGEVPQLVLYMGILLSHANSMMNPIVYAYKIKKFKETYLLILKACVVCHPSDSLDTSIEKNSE

Assays:
Adenosine receptor A3 = Adenosine receptor A3 (Homo sapiens, UniProt P0DMS8); assay: Displacement of [125I]N6-(4-amino-3-iodobenzyl)adenosine-5'-N-methyluronamide from human A3AR expressed in CHO cells after 60 mins by scintillation counting analysis; type: cell-based
Adenosine receptor A2a = Adenosine receptor A2a (Homo sapiens, UniProt P29274); assay: Displacement of [3H]2-[p-(2-carboxyethyl)phenyl-ethylamino]-5'-N-ethylcarboxamido-adenosine from human A2aAR expressed in HEK293 cells after 60 mins by scintillation counting analysis; type: cell-based

## OC[C@H]1O[C@@H](n2cnc3c(NC4CC4c4ccccc4)nc(C#Cc4ccccc4)nc32)[C@H](O)[C@@H]1O (mixture of isomers)
Adenosine receptor A3
  Ki: 0.00086 µM
Adenosine receptor A2a
  Ki: 2.53 µM
